# Measured affinities in a library of Ab-95 light chain variants

Reference: Engelhart et al. 2022, doi:10.1038/s41597-022-01779-4. File: FLAb, binding data.

Target peptide (SARS-CoV-2 spike, HR2 region): PDVDLGDISGINAS

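Variants in AAYL52 differ from the parent at up to three CDR positions; double and triple changes were sampled at random. AlphaSeq pools MATa yeast showing the antibodies with MATalpha yeast showing the peptide. Pairs that bind mate more often; barcode pairs of the diploids are counted by sequencing. The ratio of observed to expected reads was calibrated, replicate by replicate, on BCL2-family standards whose Kd was known from biolayer interferometry. The assay was run in three technical replicates.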

Parent: Ab-95, a human scFv built as VH, three GGGGS repeats, VL. Only the CDRs of the light chain vary.
VH: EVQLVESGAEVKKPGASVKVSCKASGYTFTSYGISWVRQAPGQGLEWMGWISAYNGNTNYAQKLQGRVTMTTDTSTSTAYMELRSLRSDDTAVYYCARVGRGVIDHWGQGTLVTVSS
VL: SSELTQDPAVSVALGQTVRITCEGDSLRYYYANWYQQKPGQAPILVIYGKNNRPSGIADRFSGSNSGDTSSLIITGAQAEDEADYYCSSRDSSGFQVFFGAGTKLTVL

Sequences are complete VL domains.
Numbers give log10(Kd / nM), so 0 is 1 nM and 3 is 1 µM. Smaller is tighter.
Averages over replicates are reported, and they cover detected replicates only.
Where no diploid with the target was found in that replicate, the entry reads "n.d.": below detection, most likely a poor binder, though not proof of it.
In this assay the parent's reference entry averaged 2.31; its copy inside this library read 2.25.
Nonspecific signal, from three strains lacking the peptide, appeared in 28% of pairings of library AAYL52, centred on 3.91 (5% of these signals below 2.90); values are not corrected for it. Also given: how often the same scFv was detected with the empty control strains, with their mean in brackets.

VL,"log10 Kd, replicates","mean, log10 nM",signal with controls
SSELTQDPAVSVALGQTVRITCEGASLRYYYANWYQQKPGQAPILVIYGKNNRPSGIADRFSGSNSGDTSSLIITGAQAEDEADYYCSSRDSSGFQRWFGAGTKLTVL,2.64 / 3.19 / 3.84,3.22,4/9 (4.13)
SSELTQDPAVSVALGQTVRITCEGDSLRYYYANWYQQKPGQAPILVIYEKNNHPSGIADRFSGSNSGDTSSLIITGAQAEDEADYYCKSRDSSGFQVFFGAGTKLTVL,n.d. / n.d. / n.d.,n.d.,2/9 (3.51)
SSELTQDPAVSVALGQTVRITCEGDSLEYYYANWYQQKPGQAPILVIYGKNNRPSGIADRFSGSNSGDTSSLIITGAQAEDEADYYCSCRDSSWFQVFFGAGTKLTVL,2.17 / 2.48 / 3.58,2.74,1/9 (3.91)
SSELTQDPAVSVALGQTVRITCEGDSQRYYYANWYQQKPGQAPILVIYGKNNRPSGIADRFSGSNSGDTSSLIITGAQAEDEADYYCSSRDYSGIQVFFGAGTKLTVL,4.87 / 3.76 / 4.42,4.35,1/9 (5.05)
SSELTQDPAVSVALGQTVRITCEGDSLRYYYANWYQQKPGQAPILVIYGKNMRWSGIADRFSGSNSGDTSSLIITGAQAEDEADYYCSSRDSSAFQVFFGAGTKLTVL,3.91 / n.d. / n.d.,3.91,1/9 (4.99)
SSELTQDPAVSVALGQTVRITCEDDSLRRYYANWYQQKPGQAPILVIYGKNNRPSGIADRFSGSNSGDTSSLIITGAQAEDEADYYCSSRDSSGFQFFFGAGTKLTVL,5.57 / n.d. / 2.83,4.20,3/9 (4.16)
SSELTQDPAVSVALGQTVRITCEGDSLRYYYANWYQQKPGQAPILVIYGTNNRPSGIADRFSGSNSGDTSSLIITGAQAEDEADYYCSSRDSLGFQVFFGAGTKLTVL,3.50 / 3.42 / n.d.,3.46,0/9
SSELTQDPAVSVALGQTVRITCEGDSLRYYYANWYQQKPGQAPILVIYGKNNRPSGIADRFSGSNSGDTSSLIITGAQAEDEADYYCRSRDSSFFQQFFGAGTKLTVL,4.00 / n.d. / 3.86,3.93,2/9 (3.77)
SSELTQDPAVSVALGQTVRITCESDSLRYNYANWYQQKPGQAPILVIYGKNNRPSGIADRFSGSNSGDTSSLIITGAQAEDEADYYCSSRDSSGFAVFFGAGTKLTVL,1.33 / 1.68 / 1.13,1.38,2/9 (4.54)
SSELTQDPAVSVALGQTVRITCEGDSLRYYYANWYQQKPGQAPILVIYGKNNRPAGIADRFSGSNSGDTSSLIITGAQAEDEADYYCSSRMSSGFQVFFGAGTKLTVL,2.66 / 2.37 / 2.62,2.55,1/9 (4.42)
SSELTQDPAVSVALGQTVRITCELDSLRYYYADWYQQKPGQAPILVIYGKNNRCSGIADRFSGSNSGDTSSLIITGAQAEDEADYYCSSRDSSGFQVFFGAGTKLTVL,4.36 / 4.00 / n.d.,4.18,1/9 (4.47)
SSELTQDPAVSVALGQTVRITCEGDSLRYYYATWYQQKPGQAPILVIYGKNNRPSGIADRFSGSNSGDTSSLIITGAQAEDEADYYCSSRDYWGFQVFFGAGTKLTVL,n.d. / n.d. / 4.76,4.76,3/9 (4.18)
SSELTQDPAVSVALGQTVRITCEGDSLRYAYANWYQQKPGQAPILVIYKKNNRPSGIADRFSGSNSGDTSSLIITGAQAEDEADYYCSSQDSSGFQVFFGAGTKLTVL,2.76 / 4.42 / n.d.,3.59,0/9
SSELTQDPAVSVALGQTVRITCEGSSLRYYYANWYQQKPGQAPILVIYGPNNQPSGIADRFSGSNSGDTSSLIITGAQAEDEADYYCSSRDSSGFQVFFGAGTKLTVL,3.25 / 2.65 / n.d.,2.95,3/9 (4.55)
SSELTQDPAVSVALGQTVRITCEGDSLRYYYANWYQQKPGQAPILVIYGKNNRPSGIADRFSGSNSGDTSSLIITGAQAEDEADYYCSSRDSSGDMVMFGAGTKLTVL,2.25 / 2.70 / 2.44,2.46,3/9 (3.85)
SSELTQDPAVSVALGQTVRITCENDSLRYYKAKWYQQKPGQAPILVIYGKNNRPSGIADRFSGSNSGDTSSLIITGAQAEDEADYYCSSRDSSGFQVFFGAGTKLTVL,n.d. / 3.35 / n.d.,3.35,0/9
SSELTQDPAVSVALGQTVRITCEGDSLRYYYANWYQQKPGQAPILVIYCKNNRPSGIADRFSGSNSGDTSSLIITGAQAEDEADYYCQSRDSSCFQVFFGAGTKLTVL,3.47 / 5.32 / n.d.,4.40,1/9 (3.72)
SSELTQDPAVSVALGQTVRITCEPDSLRYYYSNWYQQKPGQAPILVIYGKNNRPSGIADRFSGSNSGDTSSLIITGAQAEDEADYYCSSRDSSGFIVFFGAGTKLTVL,n.d. / n.d. / n.d.,n.d.,0/9

The 2 strongest on average among those seen in every replicate, once more:

{"VL": "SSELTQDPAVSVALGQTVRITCESDSLRYNYANWYQQKPGQAPILVIYGKNNRPSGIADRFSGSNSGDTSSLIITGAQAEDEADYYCSSRDSSGFAVFFGAGTKLTVL", "log10 Kd, replicates": "1.33 / 1.68 / 1.13", "mean, log10 nM": "1.38", "signal with controls": "2/9 (4.54)"}
{"VL": "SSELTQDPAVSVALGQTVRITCEGDSLRYYYANWYQQKPGQAPILVIYGKNNRPSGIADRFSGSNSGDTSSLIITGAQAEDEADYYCSSRDSSGDMVMFGAGTKLTVL", "log10 Kd, replicates": "2.25 / 2.70 / 2.44", "mean, log10 nM": "2.46", "signal with controls": "3/9 (3.85)"}